Target: mTOR (Homo sapiens, UniProt P42345)
Assay: LanthaScreen TR-FRET displacement binding assay, mTOR
Settings: mTOR over PI3Kα

| SI (selectivity index), Ki(PI3Kα)/Ki(mTOR) | Structure (SMILES) |
| --- | --- |
| < 20 | C[C@@H]1COCCN1c1nc(-c2cnc(N)cc2C(F)F)nc2c1C[C@@H]1COCCN21 [Compound 7] |
| >600 | C[C@@H]1COCCN1c1nc(-c2cnc(N)c(C(F)(F)F)c2)nc2c1C[C@@H]1COCCN21 [Compound 11] |
